Source: patent US6399615B1, “Farnesyl protein transferase inhibitors” (Schering Corporation, priority 1997, dated 2002)

Chains of the proteins cited; added tags and fusions are not shown.
UniProt P49356, whole entry: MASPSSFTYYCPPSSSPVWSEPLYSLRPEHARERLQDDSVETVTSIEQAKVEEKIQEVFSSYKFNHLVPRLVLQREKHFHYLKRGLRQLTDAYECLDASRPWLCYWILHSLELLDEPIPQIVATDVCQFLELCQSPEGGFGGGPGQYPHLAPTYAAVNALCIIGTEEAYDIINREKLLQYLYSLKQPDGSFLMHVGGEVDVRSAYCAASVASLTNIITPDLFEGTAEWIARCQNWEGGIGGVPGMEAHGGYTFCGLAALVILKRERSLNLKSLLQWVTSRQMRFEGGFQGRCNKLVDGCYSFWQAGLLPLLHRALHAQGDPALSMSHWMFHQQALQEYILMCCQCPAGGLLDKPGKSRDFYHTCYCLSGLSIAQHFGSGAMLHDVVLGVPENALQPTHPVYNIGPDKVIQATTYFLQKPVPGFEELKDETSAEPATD

How the values were obtained:
[1] = system: COS Cell; assay: COS Cell IC50 (Cell-Based Assay); details: read-out: COS Cell IC50; COS cells
Description: (§1) FPT IC50 (inhibition of farnesyl protein transferase, in vitro enzyme assay) and COS Cell IC50 (Cell-Based Assay) were determined following the assay procedures described in WO 95/10516, published Apr. 20, 1995. GGPT IC50 (inhibition of geranylgeranyl protein transferase, in vitro enzyme assay), Cell Mat Assay, and anti-tumor activity (in vivo anti-tumor studies) could be determined by the assay procedures described in WO 95/10516. The disclosure of WO 95/10516 is incorporated herein by reference thereto.

[2] = biological target: farnesyl protein transferase (Homo sapiens, UniProt P49354+P49356); assay: FPT IC50 (inhibition of farnesyl protein transferase, in vitro enzyme assay); details: read-out: FPT IC50
Description: as §1

IC50 [2]: 5.6 nM
SMILES: CCOC(=O)C1CCC(CC(=O)N2CCC([C@H]3c4ncc(Br)cc4CCc4cc(Cl)cc(Br)c43)CC2)CC1 (some centres unmarked)
IC50 [1]: 22 nM
